From publication PMC11026163, “Structural basis for excitatory neuropeptide signaling” (Nature Structural & Molecular Biology, 2024)

Key:
FaNaC1 (WT) = target: T1, FaNaC1 (WT) (Malacoceros fuliginosus, UniProt A0AAN0NP85); assay: Two-electrode voltage clamp, peptide-gated currents in Xenopus laevis oocytes expressing WT FaNaC1; assay type: cell-based
T1 sequence (A0AAN0NP85 1-600): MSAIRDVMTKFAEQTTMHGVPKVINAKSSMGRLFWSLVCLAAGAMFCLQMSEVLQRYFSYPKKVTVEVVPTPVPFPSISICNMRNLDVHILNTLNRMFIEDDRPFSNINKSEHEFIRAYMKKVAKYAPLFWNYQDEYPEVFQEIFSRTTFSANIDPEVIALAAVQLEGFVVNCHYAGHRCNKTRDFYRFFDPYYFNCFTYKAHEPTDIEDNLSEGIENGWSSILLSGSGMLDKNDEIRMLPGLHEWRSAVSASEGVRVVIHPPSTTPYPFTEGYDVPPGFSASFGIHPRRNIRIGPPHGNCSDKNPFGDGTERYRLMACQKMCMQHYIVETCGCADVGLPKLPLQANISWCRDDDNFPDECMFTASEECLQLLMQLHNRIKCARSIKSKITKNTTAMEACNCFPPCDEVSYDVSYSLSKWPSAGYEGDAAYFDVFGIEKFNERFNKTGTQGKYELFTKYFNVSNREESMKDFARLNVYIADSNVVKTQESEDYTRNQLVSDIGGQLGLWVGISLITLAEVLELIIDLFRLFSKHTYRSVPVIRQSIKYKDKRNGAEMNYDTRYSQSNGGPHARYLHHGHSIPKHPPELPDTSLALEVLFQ
Experimental: (§1) FaNaC1 in a modified pSP64 plasmid vector (Supplementary Notes) was used for mutagenesis and messenger RNA preparation and injection into stage V/VI Xenopus laevis oocytes (EcoCyte Bioscience). Mutants were generated by partly overlapping primers (Supplementary Table 1 and ref. [75]), and channel-coding inserts were Sanger sequenced. […] NaCl was replaced with KCl, NH4Cl or H3CNH3Cl (Merck) where appropriate.
(§2) Current amplitudes were measured in Clampfit v.11 (Molecular Devices). N values refer to experiments performed on different oocytes. Data were analyzed in Prism v.9 (GraphPad) and fit with Prism v.9 variable-slope four-parameter nonlinear regression, yielding half-maximal effective activating/inhibiting concentrations (EC50/IC50). […] Mean ± standard error of the mean (s.e.m.) EC50/IC50 from fits to individual cells reported in Main. Currents shown in figures are further filtered (20 Hz) and decimated (50×) in Clampfit 11 for smaller file size.

FaNaC1 V122Q = assay: TEVC, FMRFa-gated currents, oocytes expressing mutant FaNaC1; assay type: cell-based, Malacoceros fuliginosus
Experimental: as §1, §2

FaNaC1 D101A/E235A = assay: as above; assay type: cell-based, Malacoceros fuliginosus
Experimental: as §1, §2

FaNaC1 F129Q = assay: as above; assay type: cell-based, Malacoceros fuliginosus
Experimental: as §1, §2

FaNaC1 Q133N = assay: as above; assay type: cell-based, Malacoceros fuliginosus
Experimental: as §1, §2

FaNaC1 V122F = assay: as above; assay type: cell-based, Malacoceros fuliginosus
Experimental: as §1, §2

FaNaC1 Q133L = assay: as above; assay type: cell-based, Malacoceros fuliginosus
Experimental: as §1, §2

FaNaC1 F129A = FaNaC1 F129A (Malacoceros fuliginosus, UniProt A0AAN0NP85, F130A); assay: as above; assay type: cell-based
Experimental: as §1, §2

FaNaC1 V122A = FaNaC1 V122A (Malacoceros fuliginosus, UniProt A0AAN0NP85, V123A); assay: as above; assay type: cell-based
Experimental: as §1, §2

FaNaC1 F129L = FaNaC1 F129L (Malacoceros fuliginosus, UniProt A0AAN0NP85, F130L); assay: as above; assay type: cell-based
Experimental: as §1, §2

FaNaC1 S282C = FaNaC1 S282C (Malacoceros fuliginosus, UniProt A0AAN0NP85, S283C); assay: TEVC, FMRFa-gated currents with and without MTSET modification of introduced cysteine; assay type: cell-based; conditions: n = 3
Description: (§3) We had previously proposed an FMRFa-binding site ~20 Å away from this site, at the interface of adjacent subunits’ β-ball and palm domains (orange in Fig. 3a and Extended Data Fig. 7) based on amino acid sequence analysis and severe effects of mutations in this site in several FaNaCs[21]. Our high-resolution maps seem to disprove that, motivating us to experimentally compare the finger site and palm/β-ball site. To this end, we compared the effects of modification of introduced cysteine residues in both of the sites by 2-(trimethylammonium)ethyl]methanethiosulfonate (MTSET), offering a readout of steric modification of the sites in ‘real time’. […] In the palm domain, MTSET modification reduced β9-S282C currents to about half but had no effect on the β11-N475C mutant (Fig. 3a,b).
(§4) Fig. 3 Chemical modification of FMRFa binding site and intersubunit interface. a, Illustration of cysteine substitutions in FMRFa binding site and previously identified interfacial site. b, FMRFa-gated currents with and without MTSET (300 μM) and after dithiothreitol (DTT) (2 mM) in oocytes expressing indicated FaNaC1 constructs. Top, example recordings. Bottom, mean (columns) and individual (dots, n = 4 oocytes) current amplitude normalized to that in the absence of MTSET. Scale bars, x, 10 s; y, 100 nA. c,d, Top, concentration-dependent FMRFa-gated currents in oocytes expressing indicated FaNaC1 constructs. Bottom, mean (±s.e.m., n = 4 oocytes) concentration-dependent current amplitude normalized to maximum current in the absence of MTSET. Scale bars in c and d, x, 10 s; y, 50 nA. Source data
as §1
(§5) Oocytes were clamped at −60 mV unless otherwise indicated, and currents were measured by two-electrode voltage clamp, as previously described, using a Warner OC-725C amplifier and HEKA LIH8 + 8 interface with Patchmaster 2x90.4 software (HEKA), sampling at 500 Hz or 1 kHz and filtering at 100 Hz. Current amplitudes were measured in Clampfit v.11 (Molecular Devices). N values refer to experiments performed on different oocytes. Data were analyzed in Prism v.9 (GraphPad) and fit with Prism v.9 variable-slope four-parameter nonlinear regression, yielding half-maximal effective activating/inhibiting concentrations (EC50/IC50). In establishing EC50 values for activation by FMRFa, we waited 4 min between applications of increasing concentrations. As detailed in Extended Data Fig. 5a,b, this risked incomplete recovery from desensitization at high ligand concentrations, but it ensured better recordings without substantially affecting EC50. Mean ± standard error of the mean (s.e.m.) EC50/IC50 from fits to individual cells reported in Main. Currents shown in figures are further filtered (20 Hz) and decimated (50×) in Clampfit 11 for smaller file size.

FaNaC1 F129C = FaNaC1 F129C (Malacoceros fuliginosus, UniProt A0AAN0NP85, F130C); assay: as above; assay type: cell-based; conditions: n = 3
Description: as §3, §4, §1, §5

FaNaC1 F97C = FaNaC1 F97C (Malacoceros fuliginosus, UniProt A0AAN0NP85, F98C); assay: as above; assay type: cell-based; conditions: n = 3
Description: as §3, §4, §1, §5

FaNaC1 N475C = FaNaC1 N475C (Malacoceros fuliginosus, UniProt A0AAN0NP85, N476C); assay: as above; assay type: cell-based; conditions: n = 3
Description: as §3, §4, §1, §5

FaNaC1 M238C = FaNaC1 M238C (Malacoceros fuliginosus, UniProt A0AAN0NP85, M239C); assay: as above; assay type: cell-based; conditions: n = 3
Description: as §3, §4, §1, §5

FaNaC1 H297S = assay: TEVC, FMRFa- and ASSFVRIa-gated currents at H297S channels; assay type: cell-based, Malacoceros fuliginosus
Description: Fig. 6 FaNaC1 gating mechanism. a, Overlay of ligand-free FaNaC1 (blue) and FaNaC1/FMRFa/diminazene (orange) structures. Adjacent subunit in darker shades. b, Magnified views of boxed regions, left to right: ligand binding site; palm domain; β-turn–TM2a/TM1 interactions. Selected side chains shown as sticks and labeled. c, Illustration of one subunit (left subunit in a) moving during gating: peripheral rolling, internal stasis and β-turn moving outward to allow channel expansion. α6 helix from adjacent subunit in gray. d, Top left and bottom, example recordings from oocytes expressing mutant H297S FaNaC1 channels (scale bars, x, 30 s; y, 1 µA). Top right, mean (± s.e.m., n = 5 oocytes) responses of H297S channels to FMRFa and ASSFVRIa normalized to maximum FMRFa-gated current (I/Imax-FMRFa), compared to WT channels. […]
Oocytes were clamped at −60 mV unless otherwise indicated, and currents were measured by two-electrode voltage clamp, as previously described, using a Warner OC-725C amplifier and HEKA LIH8 + 8 interface with Patchmaster 2x90.4 software (HEKA), sampling at 500 Hz or 1 kHz and filtering at 100 Hz. Current amplitudes were measured in Clampfit v.11 (Molecular Devices). […] Data were analyzed in Prism v.9 (GraphPad) and fit with Prism v.9 variable-slope four-parameter nonlinear regression, yielding half-maximal effective activating/inhibiting concentrations (EC50/IC50). […]

Q: What does the source list for `CSCC[C@H](NC(=O)[C@@H](N)Cc1ccccc1)C(=O)N[C@@H](CCCNC(=N)N)C(=O)N[C@@H](Cc1ccccc1)C(N)=O` [FMRFa, H–Phe–Met–Arg–Phe–NH2]?
A: agonist type (FaNaC1 (WT)): Full agonist; effect of mutation on FMRFa potency (FaNaC1 V122Q): no effect; effect of mutation on FMRFa potency (FaNaC1 D101A/E235A): two- to fourfold decreases in potency; decrease in FMRFa potency vs WT (FaNaC1 F129Q): ~ 100 fold; effect of mutation on FMRFa potency (FaNaC1 Q133N): two- to fourfold decreases in potency; effect of mutation on FMRFa potency (FaNaC1 V122F): no effect; effect of mutation on FMRFa potency (FaNaC1 Q133L): two- to fourfold decreases in potency; EC50 (FaNaC1 F129A): 18000 ± 8000 nM; decrease in FMRFa potency vs WT (FaNaC1 F129A; F129A): 10- to 20 fold; EC50 (FaNaC1 V122A): 40 ± 10 nM; increase in FMRFa potency vs WT (FaNaC1 V122A; V122A): 20 fold; EC50 (FaNaC1 F129L): 9000 ± 3000 nM; decrease in FMRFa potency vs WT (FaNaC1 F129L; F129L): 10- to 20 fold; EC50 (FaNaC1 S282C; after MTSET): 170 ± 40 nM; EC50 (FaNaC1 S282C; before MTSET): 360 ± 100 nM; EC50 (FaNaC1 F129C; after MTSET): > 10000 nM; EC50 (FaNaC1 F129C; before MTSET): 5000 ± 1000 nM; EC50 (FaNaC1 F97C; after MTSET): 4000 ± 2000 nM; EC50 (FaNaC1 F97C; before MTSET): 250 ± 80 nM; EC50 (FaNaC1 N475C; after MTSET): 140 ± 70 nM; EC50 (FaNaC1 N475C; before MTSET): 230 ± 110 nM; EC50 (FaNaC1 M238C; after MTSET): 580 ± 290 nM; EC50 (FaNaC1 M238C; before MTSET): 140 ± 70 nM; potency at H297S compared to WT (FaNaC1 H297S): increased potency compared to WT
